Reference: patent publication US11628148B2, “Nail hardening composition and method of use” (WELLA OPERATIONS US, LLC, priority 2017, dated 2023)

Test: Behaviour of the test solution at the highest concentration prepared
Assay type: physicochemical
Details: 10% (w/w) HMD + MA 1:2 in ethanol

Observation on the solution: Strong Polymerization | Observation on the solution (listed as COMPOSITION example 1): strong precipitation
Substance: Hexamethylene diamine/Maleic acid [Hexamethylene diamine + Maleic acid]
